Measured values: patent US9481674B1, “Dihydropyrrolopyridine inhibitors of ROR-gamma” (Vitae Pharmaceuticals, Inc., priority 2016, dated 2016)

The chains behind the UniProt entries cited, without tags or fusion partners. Residues count along the entry.
UniProt P51449, 1-497 isoform 2: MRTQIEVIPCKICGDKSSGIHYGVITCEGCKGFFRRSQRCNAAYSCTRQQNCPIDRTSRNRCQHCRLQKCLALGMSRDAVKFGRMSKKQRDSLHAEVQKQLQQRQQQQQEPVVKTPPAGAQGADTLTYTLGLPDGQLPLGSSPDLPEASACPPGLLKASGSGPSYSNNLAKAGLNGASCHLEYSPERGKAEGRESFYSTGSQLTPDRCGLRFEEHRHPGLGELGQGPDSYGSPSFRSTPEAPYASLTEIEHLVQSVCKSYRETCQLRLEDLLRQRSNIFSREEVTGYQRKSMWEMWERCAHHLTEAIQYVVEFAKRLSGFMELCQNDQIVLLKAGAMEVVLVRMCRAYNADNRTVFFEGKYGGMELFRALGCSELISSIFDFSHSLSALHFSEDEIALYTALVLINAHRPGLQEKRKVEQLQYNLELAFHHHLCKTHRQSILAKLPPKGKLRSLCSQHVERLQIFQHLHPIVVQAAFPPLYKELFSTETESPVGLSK
UniProt P51449, 269-508 limits assumed: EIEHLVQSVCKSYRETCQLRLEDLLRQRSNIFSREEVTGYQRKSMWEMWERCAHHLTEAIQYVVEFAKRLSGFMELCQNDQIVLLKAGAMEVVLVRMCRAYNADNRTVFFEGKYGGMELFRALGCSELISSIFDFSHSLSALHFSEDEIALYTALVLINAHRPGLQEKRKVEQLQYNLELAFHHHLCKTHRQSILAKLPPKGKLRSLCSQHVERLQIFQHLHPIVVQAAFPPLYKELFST

How the values were obtained:
[1] = molecular target: recombinant RORγ Ligand Binding Domain (LBD) protein (Homo sapiens, UniProt P51449); assay: Radio-Ligand RORγ Binding Assay (Assay 1); settings: read-out: RORγ Binding Ki Range* (nM) (Assay 1); cell-free competition with 25-hydroxy[26,27-3H]-cholesterol
IL-17A production = assay: Human Whole Blood Assay (Assay 3); assay type: cell-based; settings: read-out: 50% Human Whole Blood Assay IC50, nM* (Assay 3), 50% blood/media, CytoStim, 48 h
Protocol: Human Whole Blood Assay (Assay 3)
Compounds of the invention were tested in the human whole blood assay to measure their effects on IL-17A production as determined by cytokine secretion into 50% blood/media supernatant. Mixtures of sodium heparinized whole blood (isolated from healthy human donors) and the T cell activator CytoStim, in the presence or absence of compound, were plated in sterilized, tissue culture-treated 24-well plates. Specifically, the mixtures in each well were as follows: (1) 500 μL of whole blood, (2) 250 μL of compound diluted into RPMI-1640 media containing 10% HyClone™ FCS (Thermo Fisher Scientific, Waltham, Mass.), Gibco® Pen/Strep and Gibco® NEAA (Life Technologies, Grand Island, N.Y.), and (3) 250 μL of CytoStim (Miltenyi Biotech, Germany) diluted to a final concentration of 10 μL/mL in complete cell culture medium.
IL-17A cytokine expression was determined using 25 μL of the transferred supernatant diluted with 25 μL of Diluent 43 from the Human IL-17A V-PLEX™ kit (cat. # K151RFD-4, Meso Scale Discovery, Rockville, Md.). The assay was performed according to the manufacturer's instructions using included reagents. The IL-17A V-PLEX™ plates were read using the Meso Scale Discovery Imager (Model 1200).

[2] = molecular target: full-length RORγt in Jurkat cells (Homo sapiens, UniProt P51449); settings: read-out: RORγt5X IC50 Range* (nM) (Assay 2), luciferase reporter

Ki [1]: < 100 nM | IC50 (IL-17A production): 100 to 200 nM | IC50 [2]: < 100 nM
Structure (SMILES): CC(C)[C@H]1c2ncc(C(=O)N[C@@H](CO)c3ccc(S(C)(=O)=O)cc3)cc2CN1C[C@H]1CC[C@H](C(F)(F)F)CC1
